# Legend:
# Test in all cases: Competition binding assay with [3H]flunitrazepam
# [1] = biological target: human GABAA receptor containing α5 subunit (BZ site) (Homo sapiens, UniProt P18507+P31644); settings: read-out: Ki α5, transfected HEK 293T, duplicate
# [2] = biological target: human GABAA receptor containing α3 subunit (BZ site) (Homo sapiens, UniProt P18507+P34903); settings: read-out: Ki α3, transfected HEK 293T, duplicate
# [3] = biological target: human GABAA receptor containing α1 subunit (BZ site) (Homo sapiens, UniProt P14867+P18507); settings: read-out: Ki α1, transfected HEK 293T, duplicate
smiles,measurement,setting,value
"C#Cc1ccc2c(c1)C(c1ccccc1F)=NC(C)c1c(C(=O)OCC)ncn1-2 (stereo not drawn) [SH-053-S-CH3-2'F, 8-ethynyl-6-(2-fluorophenyl)-4-methyl-4H-2,5,10b-triaza-benzo[e]azulene-3-carboxylic acid ethyl ester]",Ki,[1],19.2 nM
same,Ki,[2],291 nM
same,Ki,[3],468 nM

# Reference: PMC2859624 (Progress in neuro-psychopharmacology & biological psychiatry, 2010)
